{"source": "patent US20150377888A1", "about": "“Methods for Predicting and Preventing Metastasis in Triple Negative Breast Cancers” (INSERM (INSTITUT NATIONAL DE LA SANTÉ ET DE LA RECHERCHE …, priority 2013, published 2015)", "type_in_all_cases": "cell-based, human", "key": {"[1]": {"test_system": "TNBC breast cancer cell lines (Hs578T, MDA-MB-231 and MDA-MB-468)", "experiment": "In vitro motility assay (Boyden chambers)", "conditions": "cells pre-treated with the agent (inhibitors at non-cytotoxic amounts)", "method": "Boyden chambers (Millipore, Molsheim, France) containing 8 μm pore membranes were cultured in 24-well plates. After hydration of the membranes, 10^5 cells were added to the top chamber in low serum (1%)-containing medium. […] Cells were cultured for 24 h at 37° C. in a 5% CO2 humidified incubator. To quantify invasion, cells were fixed with methanol and stained with Giemsa. Stained cells were then removed from the top side of the membrane using a cotton-tipped swab and five representative pictures for each insert were taken of the invading cells from the reverse side. For each experiment, cells were lysed and absorbance at 560 nm was measured."}, "EGFR [2]": {"test_system": "EGFR", "experiment": "Ca2+ monitoring: EGF-induced Ca2+ response", "conditions": "TNBC cells (MDA-MB-231) in presence of EGF", "method": "For experiments on parent cell lines, breast cancer cells were loaded with Fura2-PE3-AM (1 μM) at room temperature for 30 min in Hank's Balanced Salt Solution (HBSS). […] To minimize UV light exposure, a 4×4 binning function was used. Fura2-AM was alternately excited at 340 and 380 nm, and the ratios of the resulting images (excitations at 340 and 380 nm and emission filter at 520 nm) were produced at constant intervals (10 seconds). […] Fratio reflects the intracellular Ca^2+ concentration changes. Each experiment was repeated 3 times, and for each experimental condition, the average of more than 20 single-cell traces was used."}, "EGFR [3]": {"test_system": "EGFR", "experiment": "EGFR phosphorylation at Tyr845 / CD95-driven EGFR activation", "conditions": "breast cancer cells", "method": "Cells were lysed for 30 min at 4° C. in lysis buffer [25 mM HEPES (pH 7.4), 1% v/v Triton X-100, 150 mM NaCl, and 2 mM EGTA supplemented with a mix of protease inhibitors (Sigma-Aldrich)]. Protein concentration was determined by the bicinchoninic acid method (PIERCE, Rockford, Ill., USA) according to the manufacturer's protocol. Proteins were separated by SDS-PAGE and transferred to a nitrocellulose membrane (GE Healthcare, Buckinghamshire, England). The membrane was blocked for 15 min with TBST (50 mM Tris, 160 mM NaCl, 0.05% v/v Tween 20, pH 7.8) containing 5% w/v dried skimmed milk (TBSTM) and then incubated overnight with primary antibody at 4° C. in TBSTM. The membrane was intensively washed (TBST) and peroxidase-labeled anti-rabbit or anti-mouse (SouthernBiotech, Birmingham, Ala., US) was added for 45 min. The proteins were visualized with the enhanced chemiluminescence substrate kit (ECL, GE Healthcare)."}}}
{"substance": "cetuximab: antibody that binds to EGFR ectodomain and prevents its interaction with EGF", "values": [{"measurement": "effect on migration of TNBC cells exposed to cl-CD95L", "setting": "[1]", "value": "did not alter"}, {"measurement": "effect on EGF-induced Ca2+ response", "setting": "EGFR [2]", "value": "abrogated"}, {"measurement": "effect on CD95-driven EGFR activation", "setting": "EGFR [3]", "value": "does not impair"}]}
